One block for each compound: values may come before it.
Experiments:
[1] = biological target: T1, PCNA (Homo sapiens, UniProt P12004); assay: Kd (nM)
T1 construct: endogenous in cells; host or cells: HEK293

Sequences of proteins named here, by UniProt entry; tags and fusion partners are left off.
UniProt P12004, whole entry, looked up: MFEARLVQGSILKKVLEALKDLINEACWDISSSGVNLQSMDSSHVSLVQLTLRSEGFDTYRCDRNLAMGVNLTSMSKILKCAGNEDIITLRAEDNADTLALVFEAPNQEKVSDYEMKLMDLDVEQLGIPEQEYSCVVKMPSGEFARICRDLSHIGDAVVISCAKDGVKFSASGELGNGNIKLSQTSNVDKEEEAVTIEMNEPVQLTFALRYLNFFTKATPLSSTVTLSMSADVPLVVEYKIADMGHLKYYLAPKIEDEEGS
UniProt P06730, whole entry: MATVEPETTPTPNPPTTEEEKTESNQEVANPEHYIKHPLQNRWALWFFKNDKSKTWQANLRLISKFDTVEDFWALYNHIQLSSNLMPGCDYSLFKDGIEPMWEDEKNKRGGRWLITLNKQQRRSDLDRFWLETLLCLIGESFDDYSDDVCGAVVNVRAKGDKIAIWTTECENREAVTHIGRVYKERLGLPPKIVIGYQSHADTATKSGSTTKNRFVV
UniProt P60842, whole entry, species assumed: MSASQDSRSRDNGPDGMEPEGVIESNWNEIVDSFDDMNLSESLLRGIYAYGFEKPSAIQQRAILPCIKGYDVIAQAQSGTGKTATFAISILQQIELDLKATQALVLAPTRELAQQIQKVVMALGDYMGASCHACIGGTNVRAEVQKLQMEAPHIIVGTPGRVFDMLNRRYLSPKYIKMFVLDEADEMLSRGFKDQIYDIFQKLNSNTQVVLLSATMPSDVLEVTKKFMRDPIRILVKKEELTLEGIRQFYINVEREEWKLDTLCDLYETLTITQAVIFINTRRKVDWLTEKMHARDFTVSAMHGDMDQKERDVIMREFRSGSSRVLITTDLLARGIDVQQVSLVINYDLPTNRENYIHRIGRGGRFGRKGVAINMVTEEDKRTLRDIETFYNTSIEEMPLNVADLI

[2] = biological target: T2, eIF4E cap-binding site (Homo sapiens, UniProt P06730); assay: m^7GTP^FAM competitive fluorescence anisotropy assay; settings: for effect of alanine mutation of EE-02 on binding to eIF4E: m^7GTP^FAM competition, relative to EE-02
T2 construct: pET11d expression plasmid containing the full-length eIF4E clone; made in house; host or cells: E. coli Rosetta pLysS

[3] = biological target: T3, eIF4E (Homo sapiens, UniProt P06730); assay: Isothermal titration calorimetry against eIF4E; assay type: binding; settings: 293 K
T3 construct: pET11d expression plasmid containing the full-length eIF4E clone; made in house; host or cells: E. coli Rosetta pLysS

[4] = biological target: T4, eIF4A (Homo sapiens, UniProt P60842); assay: Isothermal titration calorimetry against eIF4A; assay type: binding
T4 construct: GST (N); made in house; host or cells: E. coli BL21 DE3

[5] = biological target: T4, eIF4A; assay: eIF4A Surface Plasmon Resonance (SPR) assay; assay type: binding

Compound: SRSSQSERPVYPMFHLR (SRSERPVYPMFHLR) [SEQ ID NO: 22 | D2]
Kd [1]: 165 ± 15.3 nM

Compound: MHPSAICEMGFFQDC [VH-DiF^CAP-05]
Kd ([2]; read-out: Competitive Anisotropy (m^7GTP^FAM, kd), Table 3, 293 K, triplicate): > 20000 nM
ITC N, stoichiometry of the interaction (number of binding sites) [3]: 0.99
ITC ΔH (KJ/Mol), enthalpy of binding [3]: -7.5 kJ/mol
ITC ΔS (J/mol-K), entropy of binding [3]: 83.4 J/mol-K
Kd ([3]; direct binding titration, read-out: ITC Kd): 2150 nM

Compound: CSCC[C@@H]1NC(=O)[C@H](CCC(=O)O)NC(=O)[C@@H](NC(=O)[C@H](C)N)CSSC[C@@H](C(=O)NCC(N)=O)NC(=O)[C@H](CC(=O)O)NC(=O)[C@H](C)NC(=O)[C@H](Cc2ccccc2)NC(=O)[C@H](Cc2ccccc2)NC(=O)CNC1=O [EE-02^98A]
effect of alanine mutation of EE-02 on binding to eIF4E [2]: no effect on binding

Compound: GCLWVLSRTPWCMLKLGP (disulphide bond) [4AM20, forms a disulphide bond]
Kd by Isothermal Titration calorimetry ([4]; in the presence of TCEP): negligible
Kd ([4]; without TCEP): ~56 nM
Kd ([5]; PBST running buffer without DTT, read-out: Dissociation Constant (Kd) PBST Running Buffer): 17.5 nM
Kd ([5]; read-out: Dissociation Constant (Kd) PBST with 1 mM DTT, PBST with 1 mM DTT): 838 nM

Compound: CSCC[C@@H]1NC(=O)[C@H](CCC(=O)O)NC(=O)[C@@H](NC(=O)[C@H](C)N)CSSC[C@@H](C(=O)NCC(N)=O)NC(=O)[C@H](C)NC(=O)[C@H](CCC(N)=O)NC(=O)[C@H](Cc2ccccc2)NC(=O)[C@H](Cc2ccccc2)NC(=O)CNC1=O [EE-02^D9A]
effect of alanine mutation of EE-02 on binding to eIF4E [2]: small attenuation of the Kd

Compound: SQSERPVYPMFHLR [VH-D1]
Kd [1]: 142 ± 12.8 nM

Second part, the compound after the results:

Kd [1]: 446 ± 52.2 nM
Compound: SHTRHPVYPMFHPR [VH-31]

Kd [1]: 927 ± 48.9 nM
Compound: SYSRVPLYPMFVNR [VH-18]

From patent publication US20250346630A1, “Engineering Peptides Using Peptide Epitope Linker Evolution” (AGENCY FOR SCIENCE, TECHNOLOGY AND RESEARCH, priority 2022, published 2025)
